The target in the assay is SARM1 (Homo sapiens, UniProt Q6SZW1). The assay can be described thus: In vitro enzyme inhibition activity (SAM-TIR lysate, NAD/ADPR by HPLC-MS/MS). The conditions noted are these: read-out: SARM1 IC50; SAM-TIR lysate (SARM1 408-724) from NRK1-HEK293T cells; 25°C, 3 h with NAD.

Amino acid sequences for entries named in this document (tags omitted). Residues count along the entry.
UniProt Q6SZW1, 408-724 limits assumed: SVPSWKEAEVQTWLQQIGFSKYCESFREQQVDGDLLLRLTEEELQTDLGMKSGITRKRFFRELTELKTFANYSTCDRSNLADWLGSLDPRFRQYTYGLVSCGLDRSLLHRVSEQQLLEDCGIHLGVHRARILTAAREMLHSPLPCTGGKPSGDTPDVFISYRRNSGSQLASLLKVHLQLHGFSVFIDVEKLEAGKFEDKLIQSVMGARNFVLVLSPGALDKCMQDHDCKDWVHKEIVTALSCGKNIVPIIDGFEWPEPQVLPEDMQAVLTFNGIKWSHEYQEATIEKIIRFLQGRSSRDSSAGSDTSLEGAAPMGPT

For `O=C1Nc2c3ccc4cnccc4c3nn2CCC1Cc1ccc(Cl)c(F)c1` (centres unmarked), the IC50 is over 1 µM. In the case of `O=C1C(Cc2ccc(Cl)c(F)c2)CCN1c1[nH]nc2c1ccc1cnccc12` (centres unmarked), the IC50 is over 1 µM. With `Nc1nn(C(=O)CCc2ccc(Cl)c(F)c2)c2c1CCOc1cnccc1-2` the figure was over 1 µM; with `Nc1c2ccc3cnccc3c2nn1C(=O)CCc1ccc(Cl)cc1`, over 1 µM. For `O=C(CCc1ccc(Cl)c(F)c1)Nc1[nH]nc2c1CCOc1cnccc1-2`, the IC50 is under 0.15 µM.

As a reminder, the IC50 is the concentration at which inhibition is half-maximal.
